Earlier results as cited in paper PMC9318694 (Molecules, 2022).

Amino acid sequences for entries named in this document (tags omitted). A change or cut given only in a name is not applied to a line headed by its entry.
UniProt P14416, whole entry: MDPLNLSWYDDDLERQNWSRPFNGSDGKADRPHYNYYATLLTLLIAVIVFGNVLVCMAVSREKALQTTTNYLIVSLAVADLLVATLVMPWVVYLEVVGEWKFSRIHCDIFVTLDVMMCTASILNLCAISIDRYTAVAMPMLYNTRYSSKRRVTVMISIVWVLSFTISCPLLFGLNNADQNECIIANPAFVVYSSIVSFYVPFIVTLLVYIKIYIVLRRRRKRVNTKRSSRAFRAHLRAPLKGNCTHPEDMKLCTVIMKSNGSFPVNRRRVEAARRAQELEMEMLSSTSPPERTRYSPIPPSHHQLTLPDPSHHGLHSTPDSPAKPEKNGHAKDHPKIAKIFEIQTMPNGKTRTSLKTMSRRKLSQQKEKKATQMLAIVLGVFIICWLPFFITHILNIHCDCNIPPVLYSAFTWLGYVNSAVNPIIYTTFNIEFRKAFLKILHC

Target: D2R (Homo sapiens, UniProt P14416)
Settings: Table S1; data set of actives, radio-ligand binding assays; ref ChEMBL, [50]-[70]; cited from earlier work

## Oc1ccc2c(c1)O[C@@H](CNCc1ccc(I)cc1)CC2 [SC20, (R)-2-(((4-iodobenzyl)amino)methyl)chroman-7-ol]
  Ki: 3.79 nM
